Source: patent US9630914B2, “Multitarget FAAH and COX inhibitors and therapeutical uses thereof” (FONDAZIONE ISTITUTO ITALIANO DI TECNOLOGIA, priority 2012, dated 2017)
Where two headings read alike, the source gives them in different places.

The chains behind the UniProt entries cited, without tags or fusion partners. Residues count along the entry.
UniProt P97612, whole entry: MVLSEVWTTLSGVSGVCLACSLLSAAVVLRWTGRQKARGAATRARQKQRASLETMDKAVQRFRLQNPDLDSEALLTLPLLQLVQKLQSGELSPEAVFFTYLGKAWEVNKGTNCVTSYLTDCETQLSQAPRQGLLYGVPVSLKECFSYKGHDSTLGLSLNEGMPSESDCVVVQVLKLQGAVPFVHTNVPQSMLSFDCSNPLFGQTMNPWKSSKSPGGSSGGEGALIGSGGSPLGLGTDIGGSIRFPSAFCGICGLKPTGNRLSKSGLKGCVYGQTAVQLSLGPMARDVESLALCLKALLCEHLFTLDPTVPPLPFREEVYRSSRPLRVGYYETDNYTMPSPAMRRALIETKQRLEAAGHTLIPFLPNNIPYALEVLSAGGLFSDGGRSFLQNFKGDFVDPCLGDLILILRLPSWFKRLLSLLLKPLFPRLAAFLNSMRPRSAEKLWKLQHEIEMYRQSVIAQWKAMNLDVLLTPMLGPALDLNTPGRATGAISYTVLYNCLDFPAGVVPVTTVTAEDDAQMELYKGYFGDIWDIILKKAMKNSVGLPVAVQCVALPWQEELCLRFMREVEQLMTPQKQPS
UniProt P35354, 18-604: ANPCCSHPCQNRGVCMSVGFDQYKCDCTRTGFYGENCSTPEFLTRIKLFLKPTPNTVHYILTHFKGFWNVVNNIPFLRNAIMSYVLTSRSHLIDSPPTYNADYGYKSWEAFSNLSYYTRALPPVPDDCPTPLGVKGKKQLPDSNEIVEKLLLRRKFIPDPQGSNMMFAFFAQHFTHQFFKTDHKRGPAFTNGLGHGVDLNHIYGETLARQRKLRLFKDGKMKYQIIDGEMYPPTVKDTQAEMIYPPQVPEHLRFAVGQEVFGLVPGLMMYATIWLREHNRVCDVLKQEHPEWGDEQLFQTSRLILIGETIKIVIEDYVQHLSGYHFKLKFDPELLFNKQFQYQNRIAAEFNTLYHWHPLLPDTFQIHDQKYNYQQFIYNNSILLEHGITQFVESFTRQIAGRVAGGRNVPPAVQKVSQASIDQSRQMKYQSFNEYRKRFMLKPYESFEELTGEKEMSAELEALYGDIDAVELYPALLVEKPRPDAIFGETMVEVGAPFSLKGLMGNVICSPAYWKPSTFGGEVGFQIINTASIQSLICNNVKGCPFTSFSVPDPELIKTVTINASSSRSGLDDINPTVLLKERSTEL
UniProt O00519, whole entry: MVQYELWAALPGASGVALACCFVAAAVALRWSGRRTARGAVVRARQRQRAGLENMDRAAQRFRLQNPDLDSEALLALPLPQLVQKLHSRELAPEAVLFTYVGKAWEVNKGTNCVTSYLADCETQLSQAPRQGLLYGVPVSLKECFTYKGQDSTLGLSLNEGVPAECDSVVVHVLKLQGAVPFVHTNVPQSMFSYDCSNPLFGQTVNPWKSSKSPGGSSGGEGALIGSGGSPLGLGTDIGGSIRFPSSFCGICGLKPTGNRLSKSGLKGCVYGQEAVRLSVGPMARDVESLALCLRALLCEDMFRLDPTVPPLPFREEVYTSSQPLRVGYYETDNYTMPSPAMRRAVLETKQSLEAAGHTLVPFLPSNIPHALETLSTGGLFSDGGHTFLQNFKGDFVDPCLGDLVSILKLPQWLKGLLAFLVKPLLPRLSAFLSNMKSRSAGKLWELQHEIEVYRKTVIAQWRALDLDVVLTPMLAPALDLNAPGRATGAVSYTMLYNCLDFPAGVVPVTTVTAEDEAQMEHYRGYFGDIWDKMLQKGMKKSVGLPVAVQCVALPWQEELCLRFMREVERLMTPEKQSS

Experiments:
Format in all cases: biochemical
Rat FAAH = Rat FAAH (Rattus norvegicus (Rat), UniProt P97612); assay: In vitro rat FAAH radiometric assay; settings: rat brain homogenate; means of ≧3 experiments in duplicate
Procedure: In Vitro Rat FAAH Radiometric Assay
Rat FAAH was prepared from male Sprague Dawley rat brains, homogenized in a potter in 20 mM of Tris HCl pH 7.4, 0.32 M sucrose.
After 10 minutes of pre-incubation with test compounds, the reaction was started by adding of 50 μL of substrate and incubating for 30 min at 37° C. The substrate was prepared in assay buffer in order to achieve the final concentration of 1 μM arachidonoyl ethanolamide (Cayman Chemical N. 90050) and 0.6 nM anandamide [ethanolamine-1-^3H](American Radiolabeled Chemicals Inc., ART. 0626, conc. 1 mCi/mL, S.A. 60 Ci/mmol). The reaction was stopped by adding cold 1:1 CHCl3/MeOH. After 10 minutes of centrifugation (845×g at 4° C.) 600 μL of aqueous phase were transferred into scintillation vials previously filled with 3 mL of scintillation fluid (Ultima Gold™, Perkin Elmer Inc., Cat. 6013329). Radioactivity was measured by liquid scintillation counting (MicroBeta2 LumiJET Perkin Elmer Inc.).
(§1) The median inhibitory concentrations (IC50) were determined by non-linear regression analysis of the Log [concentration]/response curves generated with mean replicate values using a four parameter Hill equation curve fitting with GraphPad Prism 5 (GraphPad Software Inc., CA-USA).

human recombinant COX-2 = human recombinant COX-2 (Homo sapiens (Human), UniProt P35354); assay: In vitro COX assay (COX Inhibitor Screening Assay Kit), COX-2
Procedure: COX activity was measured using a commercial kit (COX Inhibitor Screening Assay Kit—Cayman Chemical N. 560131) which includes both ovine COX-1 and human recombinant COX-2 enzymes. Inhibitors were pre-incubated with either ovine COX-1 or human COX-2 in order to screen isozyme-specific inhibition. Differently than described in the kit protocol, the reaction was carried out in the presence of 5 μM arachidonic acid while for the blank sample (no activity) the two enzymes were inactivated for 40 minutes at 100° C. It was then measured the amount of PGF2α produced by reduction with SnCl2 of COX-derived PGH2, via enzyme immunoassay (EIA) using a PG-specific antibody and competing with a PG-acetylcholinesterase conjugate.
Absorbance was measured at 412 nm with a Tecan Infinite M200 plate reader and data were processed according to manufacturer's instructions.
as §1

human FAAH-1 = human FAAH-1 (Homo sapiens (Human), UniProt O00519); assay: In vitro human FAAH fluorescent assay; settings: human FAAH-1 membrane preparation from HEK-293; means of ≧3 experiments
Procedure: In Vitro Human FAAH Fluorescent Assay
Human recombinant FAAH was obtained from a HEK-293 FAAH-1 overexpressing stable cell line. Cells were grown in DMEM medium containing 10% FBS, 1% pen/strep, 1% glutamine and 500 μg/mL G418. To obtain membrane preparation cells were scraped off with cold phosphate-buffered saline (PBS) and collected by centrifugation (500×g, 10 minutes, 4° C.); the cell pellet was re-suspended in 20 mM Tris-HCl pH 7.4, 0.32 M sucrose, disrupted by sonication (10 pulses, 5 times) and centrifuged (800×g, 15 minutes, 4° C.); the collected supernatant was centrifuged at 105,000×g for 1 h at 4° C. and the pellet was re-suspended in PBS.
The fluorescent assay to measure FAAH activity was performed in 96 wells black plates: 2.5 μg of human FAAH-1 membrane preparation were pre-incubated for 50 minutes at 37° C., in 180 μL of assay buffer (50 mM TrisHCl pH 7.4, 0.05% Fatty acid-free BSA) with 10 μL of inhibitor or 10 μL DMSO to measure FAAH total activity. The background (no activity) samples were prepared using 180 μL of assay buffer without human FAAH-1 and 10 μL of DMSO. […] The reaction was carried out for 30 minutes at 37° C. and fluorescence was measured with a Tecan Infinite M200 nanoquant plate reader (excitation wavelength 350 nm/emission wavelength 460 nm). […]

[1] = 5 μM arachidonic acid, read-out: human COX-2 IC50

Row | Structure (SMILES) | IC50 (Rat FAAH) | IC50 (human recombinant COX-2; [1]) | IC50 (human FAAH-1) | IC50 (human recombinant COX-2; Table 2, read-out: COX-2 IC50)
1 | CCCCCCNC(=O)Oc1cccc(-c2ccc(C(C)C(=O)O)cc2F)c1 (single isomer, unassigned; (+)) [Example 20, (+)-2-[3-fluoro-4-[3-(hexylcarbamoyloxy)phenyl]phenyl]propanoic acid] | 9.4 nM | 10 nM | – | –
2 | CCCCCCNC(=O)Oc1cccc(-c2ccc(C(C)C(=O)O)cc2F)c1 (single isomer, unassigned; (-)) [Example 19, (−)-2-[3-fluoro-4-[3-(hexylcarbamoyloxy)phenyl]phenyl]propanoic acid] | 9.9 nM | 54000 nM | 8.6 nM | –
3 | CCCCCCNC(=O)Oc1cccc(-c2ccc(C(C)C(=O)O)cc2F)c1 (stereo not drawn) [Example 12, 2-[3-fluoro-4-[3-(hexylcarbamoyloxy)phenyl]phenyl]propanoic acid] | – | – | – | 430 nM
